The subject of this experiment is TT cells, a medullary thyroid cancer cell line with constitutively activated ret. Description: MTT assay, TT cell proliferation. The note with it: Homo sapiens, 168 h, read-out: IC50, TT cell proliferation (MTT). Type of experiment: cell-based. On the procedure:
The potency of the compound of the invention was tested for its ability to inhibit cell proliferation and cell viability.

`Cc1ccc(O)cc1Nc1ccnc2ccc(S(C)(=O)=O)cc12` [Example 11, N,N-(2-methyl-5-hydroxyphenyl)-(6-methanesulfonylquinolin-4-yl)amine]: the IC50 was less than 1000 nM.

The record behind these values is patent US20110053934A1, “COMPOUNDS AND METHODS OF TREATMENT” (GLAXOSMITHKLINE LLC, priority 2007, published 2011).
